Measurements: PubChem BioAssay AID1716 (Vanderbilt High Throughput Screening Facility, 2009)
The list shows a part of the results, in another mix than the full data. Results filed as inconclusive are left out. Active and inactive are the calls of the source.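 Rule for the calls: active = thallium flux rate significantly above the same plate's solvent-only control wells, beyond their mean plus 3 SD; inconclusive = the two replicate wells gave conflicting results; inactive = the rest.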

Assay: compound effects on native HEK Tl+ uptake – HEK cells, counterscreen 1, counter-screen for KCC2 modulator project, confirmation (AID 1716)
Details: HEK293 parental cells, thallium flux FluoZin2, ouabain; at 10 µM; baseline-ratio fluorescence slope, 10–20 s after thallium

Structure (SMILES)	thallium flux rate (normalised fluorescence)
CP(=O)(Nc1ccccc1)Oc1ccc(F)cc1 (stereo unspecified)	inactive: 0.00786
